The subject of this series is Fa2N-4 cells and primary human hepatocytes. In words: Toxicity by LDH release and resazurin reduction, Fa2N-4 cells compared with primary human hepatocytes. In general terms: Release of lactate dehydrogenase indicates damage to the cell membrane.

For the substance Hyperforin, the “sensitivity of Fa2N-4 cells relative to primary hepatocytes” value is listed as “more sensitive than primary hepatocytes”. In addition, the “Cellular Response (Fa2N-4 cells compared with primary human hepatocytes)” value (Same or Different toxicity response in the two cell types) is given as “Different”.

The record behind these values is US20070004039A1, “Immortalized hepatocytes” (Multicell Technologies, Inc., priority 2003, published 2007).
